# Results from patent US8258305B2, “Dopamine transporter inhibitors for use in treatment of movement disorders and other CNS indications” (Prexa Pharmaceuticals, Inc., priority 2005, dated 2012).
# Protein sequences, listed by entry. Tags and fused reporters are not part of them.
# UniProt P23977, whole entry: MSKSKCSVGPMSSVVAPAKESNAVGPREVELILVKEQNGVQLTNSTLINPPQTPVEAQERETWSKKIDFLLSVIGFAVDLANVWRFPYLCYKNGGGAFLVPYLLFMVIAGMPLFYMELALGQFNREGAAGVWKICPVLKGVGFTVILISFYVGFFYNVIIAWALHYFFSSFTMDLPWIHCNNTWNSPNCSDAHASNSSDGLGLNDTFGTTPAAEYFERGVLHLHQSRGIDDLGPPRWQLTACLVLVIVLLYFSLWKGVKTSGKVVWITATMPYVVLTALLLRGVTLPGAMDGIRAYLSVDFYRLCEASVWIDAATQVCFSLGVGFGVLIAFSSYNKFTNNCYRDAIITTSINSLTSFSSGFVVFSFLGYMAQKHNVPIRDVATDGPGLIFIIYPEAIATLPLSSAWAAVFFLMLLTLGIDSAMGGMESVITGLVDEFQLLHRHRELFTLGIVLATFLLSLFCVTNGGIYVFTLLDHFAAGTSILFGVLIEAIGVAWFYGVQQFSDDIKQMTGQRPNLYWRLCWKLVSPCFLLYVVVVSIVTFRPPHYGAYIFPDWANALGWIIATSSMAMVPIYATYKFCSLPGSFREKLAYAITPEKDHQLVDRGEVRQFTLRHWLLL
# UniProt P31652, whole entry: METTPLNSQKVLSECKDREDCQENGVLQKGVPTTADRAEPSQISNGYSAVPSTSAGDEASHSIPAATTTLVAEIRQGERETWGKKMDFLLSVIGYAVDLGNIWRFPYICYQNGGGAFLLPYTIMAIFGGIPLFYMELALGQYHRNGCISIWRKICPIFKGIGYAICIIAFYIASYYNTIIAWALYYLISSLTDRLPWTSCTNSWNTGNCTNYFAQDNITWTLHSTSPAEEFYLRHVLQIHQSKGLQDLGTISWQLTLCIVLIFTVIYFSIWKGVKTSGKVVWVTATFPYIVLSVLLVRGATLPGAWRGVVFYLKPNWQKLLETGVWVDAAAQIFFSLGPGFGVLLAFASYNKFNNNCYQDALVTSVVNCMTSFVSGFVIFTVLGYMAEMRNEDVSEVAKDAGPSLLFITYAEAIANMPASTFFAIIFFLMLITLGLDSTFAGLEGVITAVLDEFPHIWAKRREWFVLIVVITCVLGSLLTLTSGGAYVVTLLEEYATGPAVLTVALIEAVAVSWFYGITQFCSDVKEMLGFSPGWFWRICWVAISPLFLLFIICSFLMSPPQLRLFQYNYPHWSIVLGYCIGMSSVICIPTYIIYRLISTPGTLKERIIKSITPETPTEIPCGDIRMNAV
# Assays:
# DAT = DAT (Rattus norvegicus, UniProt P23977); assay: Functional uptake profile, rat DAT; type: cell-based
# 5-HT = 5-HT (Rattus norvegicus, UniProt P31652); assay: Functional uptake profile, rat 5-HT; type: cell-based
SMILES,EC50 (DAT),EC50 (5-HT)
CC(C)C[C@@H](N)C1(c2ccc(Cl)cc2)CCC1 [R-DDMS],100 nM,1500 nM
CN[C@H](CC(C)C)C1(c2ccc(Cl)cc2)CCC1 [R-DMS],70 nM,1500 nM
